This is a selection; strong and weak results do not stand in their true shares. Active and inactive are the calls of the source.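 How the source made its calls: active means inhibition above about 50% (limit read from the data); inconclusive means inhibition over screen mean plus 3 SD, below that limit; inactive means the rest.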
What follows are molecules tested against Dual specificity protein phosphatase 1 (Homo sapiens) (UniProt P28562) (assay: blockers of human DUSP1 activity – biochemical, in vitro, primary screen (AID 374;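 further: 0% = DMSO max control wells and 100% = wells with enzyme stopped by NaOH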)). Settings: recombinant MKP-1, OMFP hydrolysis fluorescence; active compounds read high;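 compounds tested at a single concentration somewhere between 10 and 100 µM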.

The chains behind the UniProt entries cited, without tags or fusion partners.
UniProt P28562, whole entry: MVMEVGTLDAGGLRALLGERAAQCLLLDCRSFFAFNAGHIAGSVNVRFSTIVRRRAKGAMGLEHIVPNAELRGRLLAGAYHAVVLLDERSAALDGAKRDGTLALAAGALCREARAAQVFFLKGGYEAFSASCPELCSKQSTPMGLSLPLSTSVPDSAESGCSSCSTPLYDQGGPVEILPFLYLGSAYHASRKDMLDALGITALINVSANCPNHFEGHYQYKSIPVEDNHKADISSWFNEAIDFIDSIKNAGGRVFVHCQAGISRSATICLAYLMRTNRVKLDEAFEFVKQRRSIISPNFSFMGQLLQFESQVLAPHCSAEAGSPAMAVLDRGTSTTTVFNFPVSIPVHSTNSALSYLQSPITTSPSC

Compound	inhibition
Cc1ccc(NP(C)(=O)Oc2ccccc2)c(C)c1 (stereo not drawn)	inactive: 5.6%
COc1ccccc1OP(C)(=O)Nc1ccc(C)cc1 (stereo not drawn)	inactive: -9.78%
CP(=S)(Nn1cnnc1)Oc1ccccc1 (stereo not drawn)	inactive: -9.58%
CCOP(C)(=S)SCC(=O)NC(C)C(=O)O (stereo not drawn)	inactive: 5.24%
CP(=O)(NC(=O)Nc1ccccc1)Oc1ccccc1 (stereo not drawn)	inactive: 7.26%
Cc1nc2ccc3ccccc3c2s1.O=[N+]([O-])c1cc([N+](=O)[O-])c(O)c([N+](=O)[O-])c1	inactive: -11.3%
Cc1ccc(C)c(NP(C)(=O)Oc2ccccc2)c1 (stereo not drawn)	inactive: 4.58%
CP(=O)(Nc1ccccc1F)Oc1ccccc1 (stereo not drawn)	inactive: 4.76%
CN(C)CCOC(=O)C(O)(c1ccccc1)C1CCCCC1 (stereo not drawn)	inactive: -5.56%
CP(=O)(Nc1ccc2c(c1)OCCO2)Oc1ccccc1 (stereo not drawn)	inactive: -10.9%
Cc1ccccc1NP(C)(=O)Nc1ccccc1C	inactive: 11.1%
CCOP(C)(=S)SCC(=O)NC(C)(CC)C(=O)O (stereo not drawn)	inactive: -23.8%
CCN(CC)CC(O)COC(=O)C(O)(c1ccccc1)C1CCCCC1 (stereo not drawn)	inactive: -5.61%
COc1ccccc1OP(C)(=O)Nc1c(C)n(C)n(-c2ccccc2)c1=O (stereo not drawn)	inactive: -21.9%
CP(=O)(Oc1ccccc1)N1CCOC1=O (stereo not drawn)	inactive: 1.93%
Cc1nc2ccc3ccccc3c2o1.O=[N+]([O-])c1cc([N+](=O)[O-])c(O)c([N+](=O)[O-])c1	inactive: 26.6%
COc1ccccc1OP(C)(=O)Nc1ccc(C)c(C)c1 (stereo not drawn)	inactive: 29.5%
CP(=O)(Nc1ccccn1)Oc1ccccc1 (stereo not drawn)	inactive: 2.76%

— PubChem BioAssay AID374 (University of Pittsburgh Molecular Library Screening Center, 2006)
